# Literature values in patent publication US20210316003A1 (Immunomedics, Inc., priority 2020, published 2021).
# Test system: patients with metastatic urothelial cancer (mUC)
# Conditions: 35 mUC patients, 10 mg/kg; cited from earlier work
substance,measurement,value
sacituzumab govitecan,Safety profile,"no greater than or equal to grade 3 neuropathy, no interstitial lung disease and no treatment related deaths"
